Source: PubChem BioAssay AID651702 (NMMLSC, 2012)
The list shows a part of the results, in another mix than the full data. The source made the active and inactive calls.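 Rule for the calls: active = inhibition above about 55% (limit read from the data); inconclusive = no clear call, values can overlap the other calls; inactive = the rest.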

Assay: LAMP-1 surface exposure blockers, TALL-104 cells – cell-based, flow cytometry, MLPCN library, primary screen (AID 651702)
Details: TALL-104 LAMP-1 surface exposure, at 10 µM, stronger effect = higher value, cells stimulated with thapsigargin and PMA

| Structure (SMILES) | inhibition |
| --- | --- |
| CCC(=O)N(c1ccccc1)C1(COC)CCN(CCc2cccs2)CC1 | inactive: 1.5% |
| CCC(=O)N(c1ccccc1)C1(COC)CCN(CCn2nnn(CC)c2=O)CC1 | inactive: -2.5% |
